Test results reported in ChEMBL document CHEMBL4229484, “7β-Methyl substituent is a structural locus associated with activity cliff for nepenthone analogues” (2018).

Chains of the proteins cited; added tags and fusions are not shown. Lines headed by an entry give the natural chain unless they say otherwise; changes in a name come on top.
UniProt P41145: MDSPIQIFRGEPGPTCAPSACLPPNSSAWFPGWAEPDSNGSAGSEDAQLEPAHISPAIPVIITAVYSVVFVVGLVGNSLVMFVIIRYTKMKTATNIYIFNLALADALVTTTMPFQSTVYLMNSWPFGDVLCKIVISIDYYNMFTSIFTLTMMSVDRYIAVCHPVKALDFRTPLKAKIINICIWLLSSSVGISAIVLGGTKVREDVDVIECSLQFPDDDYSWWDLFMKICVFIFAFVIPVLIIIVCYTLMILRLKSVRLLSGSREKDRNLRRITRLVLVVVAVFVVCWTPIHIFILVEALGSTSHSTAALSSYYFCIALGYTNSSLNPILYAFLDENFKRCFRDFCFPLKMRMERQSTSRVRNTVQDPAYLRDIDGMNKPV
UniProt P33535, whole entry, looked up: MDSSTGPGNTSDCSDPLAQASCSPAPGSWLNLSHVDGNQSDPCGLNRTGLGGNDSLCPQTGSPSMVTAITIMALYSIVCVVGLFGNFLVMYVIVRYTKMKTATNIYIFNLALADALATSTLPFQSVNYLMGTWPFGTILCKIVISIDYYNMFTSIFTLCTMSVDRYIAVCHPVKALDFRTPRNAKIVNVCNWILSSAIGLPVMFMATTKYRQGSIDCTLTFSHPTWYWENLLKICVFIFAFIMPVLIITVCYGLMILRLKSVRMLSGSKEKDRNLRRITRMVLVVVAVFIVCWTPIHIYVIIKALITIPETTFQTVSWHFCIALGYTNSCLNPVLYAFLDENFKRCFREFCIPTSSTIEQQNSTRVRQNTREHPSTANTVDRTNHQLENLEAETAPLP
UniProt P33533, whole entry, looked up: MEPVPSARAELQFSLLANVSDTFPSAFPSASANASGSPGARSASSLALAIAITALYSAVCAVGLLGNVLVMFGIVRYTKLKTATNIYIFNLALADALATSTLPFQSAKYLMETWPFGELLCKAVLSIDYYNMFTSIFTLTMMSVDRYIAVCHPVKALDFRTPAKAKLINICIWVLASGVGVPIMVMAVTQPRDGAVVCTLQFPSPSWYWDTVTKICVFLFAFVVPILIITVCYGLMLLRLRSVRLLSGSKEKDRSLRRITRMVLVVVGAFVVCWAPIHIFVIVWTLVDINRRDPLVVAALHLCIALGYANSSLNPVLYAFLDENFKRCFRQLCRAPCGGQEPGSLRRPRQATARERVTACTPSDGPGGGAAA

How the values were obtained:
[1] = species on record: Homo sapiens; assay: Selectivity ratio of Ki for human DOR expressed in CHO cell membranes to Ki for human KOR expressed in CHO cell membranes
[2] = target: Kappa-type opioid receptor (Homo sapiens) (UniProt P41145); assay: Agonist activity at human KOR expressed in CHO cell membranes after 1 hr by [35S]GTPgammaS binding based liquid scintillation counting analysis relative to control
[3] = target: Mu-type opioid receptor (Rattus norvegicus) (UniProt P33535); assay: Agonist activity at rat MOR expressed in CHO cell membranes after 1 hr by [35S]GTPgammaS binding based liquid scintillation counting analysis relative to control
[4] = target: Delta-type opioid receptor (Rattus norvegicus) (UniProt P33533); assay: Agonist activity at rat DOR expressed in CHO cell membranes after 1 hr by [35S]GTPgammaS binding based liquid scintillation counting analysis relative to control

Compound: COc1ccc(C(O)[C@@]2(C)C[C@@]34CC[C@]2(OC)[C@@H]2Oc5c(OC)ccc6c5[C@@]23CCN(CC2CC2)[C@@H]4C6)cc1 (some centres undefined)
- Ratio Ki [1]: 30

Compound: COc1ccc2c3c1O[C@H]1[C@@]4(OC)CC[C@@]5(C[C@]4(C)OC(=O)C(C)C)[C@@H](C2)N(CC2CC2)CC[C@]315
- Ratio Ki [1]: 9

Compound: COc1cccc(C(O)[C@@]2(C)C[C@@]34CC[C@]2(OC)[C@@H]2Oc5c(OC)ccc6c5[C@@]23CCN(CC2CC2)[C@@H]4C6)c1 (some centres undefined)
- Ratio Ki [1]: 13

Compound: COc1ccc(C(=O)[C@@]2(C)C[C@@]34CC[C@]2(OC)[C@@H]2Oc5c(OC)ccc6c5[C@@]23CCN(CC2CC2)[C@@H]4C6)cc1
- Ratio Ki [1]: 2.5

Compound: COc1ccc2c3c1O[C@H]1[C@@]4(OC)CC[C@@]5(C[C@]4(C)C(=O)c4ccccc4)[C@@H](C2)N(CC2CC2)CC[C@]315
- Ratio Ki [1]: 10

Compound: CN(C(=O)Cc1ccc(Cl)c(Cl)c1)C1CCCCC1N1CCCC1 (centres undefined)
- Emax [2]: 262%
- Emax [3]: 122%
- Emax [4]: 113%

Compound: COc1ccc2c3c1O[C@H]1[C@@]4(OC)CC[C@@]5(C[C@]4(C)CO)[C@@H](C2)N(CC2CC2)CC[C@]315
- Ratio Ki [1]: 43

Compound: COc1ccc2c3c1O[C@H]1[C@@]4(OC)C=C[C@@]5(C[C@@H]4C(=O)c4ccccc4)[C@@H](C2)N(CC2CC2)CC[C@]315
- Ratio Ki [1]: 2030

Compound: COc1ccc2c3c1O[C@H]1[C@@]4(OC)CC[C@@]5(C[C@]4(C)OC(=O)c4ccc(C(F)(F)F)cc4)[C@@H](C2)N(CC2CC2)CC[C@]315
- Ratio Ki [1]: 1

Compound: COc1ccc2c3c1O[C@H]1[C@@]4(OC)CC[C@@]5(C[C@]4(C)C(O)c4ccccc4)[C@@H](C2)N(CC2CC2)CC[C@]315 (some centres undefined)
- Ratio Ki [1]: 13

Compound: COc1ccc2c3c1O[C@H]1[C@@]4(OC)CC[C@@]5(C[C@]4(C)C=O)[C@@H](C2)N(CC2CC2)CC[C@]315
- Ratio Ki [1]: 39

Compound: COc1ccc2c3c1O[C@H]1[C@@]4(OC)CC[C@@]5(C[C@]4(C)C(O)c4ccc(C(F)(F)F)cc4)[C@@H](C2)N(CC2CC2)CC[C@]315 (some centres undefined)
- Ratio Ki [1]: 6.5

Compound: COc1ccc2c3c1O[C@H]1[C@@]4(OC)CC[C@@]5(C[C@]4(C)C(=O)c4ccc(C(F)(F)F)cc4)[C@@H](C2)N(CC2CC2)CC[C@]315
- Ratio Ki [1]: 1.8

Compound: COc1ccc2c3c1O[C@H]1[C@@]4(OC)CC[C@@]5(C[C@]4(C)OC(=O)c4ccccc4)[C@@H](C2)N(CC2CC2)CC[C@]315
- Ratio Ki [1]: 0.04

Compound: COc1ccc2c3c1O[C@H]1[C@@]4(OC)CC[C@@]5(C[C@]4(C)OC(C)=O)[C@@H](C2)N(CC2CC2)CC[C@]315
- Ratio Ki [1]: 12

Compound: COc1ccc2c3c1O[C@H]1[C@@]4(OC)CC[C@@]5(C[C@]4(C)C(O)c4ccc(-c6ccccc6)cc4)[C@@H](C2)N(CC2CC2)CC[C@]315 (some centres undefined)
- Ratio Ki [1]: 0.2

Compound: COc1ccc2c3c1O[C@H]1[C@@]4(OC)CC[C@@]5(C[C@]4(C)C(=O)c4ccc(-c6ccccc6)cc4)[C@@H](C2)N(CC2CC2)CC[C@]315
- Ratio Ki [1]: 1.3
